# scFv variants of Ab-91 (heavy chain) against a SARS-CoV-2 spike peptide

All variants were tested on one target, the spike HR2 peptide PDVDLGDISGINAS (SARS-CoV-2).

Parent: Ab-91, a human scFv built as VL, a 15-residue (Gly4Ser)3 linker, VH. Only the CDRs of the heavy chain vary.
VL: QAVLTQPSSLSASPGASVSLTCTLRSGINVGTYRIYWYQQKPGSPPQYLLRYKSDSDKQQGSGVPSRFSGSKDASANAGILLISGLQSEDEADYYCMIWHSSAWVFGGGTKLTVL
VH: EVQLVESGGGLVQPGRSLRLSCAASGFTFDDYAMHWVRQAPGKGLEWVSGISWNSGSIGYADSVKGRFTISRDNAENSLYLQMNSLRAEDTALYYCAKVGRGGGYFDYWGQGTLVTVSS

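The parent was found by panning a naive human phage display library on the peptide. AAYL51 was designed without a model: most single CDR substitutions and a random sample of double and triple ones. AlphaSeq pools MATa yeast showing the antibodies with MATalpha yeast showing the peptide. Mating (16 h, 30 °C) was followed by selection of diploids and sequencing of their barcodes. Scores were corrected for input abundance and mapped to Kd with protein pairs of known affinity run in the same pool. Each pool was mated in three replicate cultures.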

Variants are written as CDR1, CDR2 and CDR3 of the heavy chain (limits as in the source). Parent: GFTFDDYAMH, GISWNSGSIGYADSVK, VGRGGGYFDY. Numbers give log10(Kd / nM), so 0 is 1 nM and 3 is 1 µM. Smaller is tighter. "n.d." means that the variant was in the library but no mating with the target was seen in that replicate; the authors take this as a sign of poor binding, and no number exists. Empty control strains, which show no peptide, gave a signal in 21% of pairings with library AAYL51; the median was 4.54 and 95% of these signals were weaker than 3.26. No background was subtracted. For each scFv, signals with the empty controls are counted beside the result, with their mean in brackets. In this assay the parent's reference entry averaged 1.86; its copy inside this library read 0.88.

CDR-H1 | CDR-H2 | CDR-H3 | replicates, log10 nM | signal with controls
GFTFDDYAMS | GISIISGSIGYADSVK | VGRGGGYFDY | n.d. / 4.68 / n.d. | 3 of 9 (4.26)
GFTWDDYAMH | KISWNSGSIGYAMSVK | VGRGGGYFDY | n.d. / 6.03 / n.d. | 1 of 9 (3.84)
GFTFDSYTMH | GISWNSGSIGYADSVK | VGHGGGYFDY | n.d. / n.d. / n.d. | 0 of 9
EFTFDDYYMH | GISWNSGSIGYADSVK | VGRGGGYFDV | n.d. / n.d. / 5.48 | 4 of 9 (5.09)
IFPFDDYAMH | GISWNSGSIQYADSVK | VGRGGGYFDY | n.d. / n.d. / 3.65 | 1 of 9 (2.53)
GFTFDDYAMH | GISWQSGSEGCADSVK | VGRGGGYFDY | n.d. / 3.34 / n.d. | 0 of 9
GFTFDDYAMH | GFSWNNGSIGYADSVK | VWRGGGYFDY | n.d. / n.d. / n.d. | 0 of 9
GFTFDDYATH | GISWLSGKIGYADSVK | VGRGGGYFDY | 4.34 / 5.37 / n.d. | 1 of 9 (4.52)
GFTFDYYAMH | GISWNSGNIGYADSVK | VVRGGGYFDY | n.d. / n.d. / n.d. | 0 of 9
GFTFDDYANH | GISWNDGSIGYADSVK | SGRGGGYFDY | 4.46 / 5.07 / n.d. | 2 of 9 (4.11)
GFTFDDYAMH | GISWNSGSIGVADTVE | VGRGGGYFDY | n.d. / n.d. / n.d. | 0 of 9
GFTKDDYAIH | GISWNSGSIGYADSVK | VGRGGGYFDM | 3.96 / n.d. / n.d. | 1 of 9 (4.07)
GFTFDDFAMH | GISSNSGSIGYADSVK | VGRGGKYFDY | n.d. / n.d. / n.d. | 1 of 9 (4.26)
GFTFDDYAMH | GYSWNSGSIGDADSVK | VGRGGGYFVY | n.d. / n.d. / n.d. | 0 of 9
GFTKDDYAMH | GISWNSGSIGYADSVK | VGYGGMYFDY | 4.86 / 4.36 / 5.06 | 4 of 9 (5.24)
LFTFDDYAMH | GISWNHGSIQYADSVK | VGRGGGYFDY | n.d. / 5.96 / n.d. | 2 of 9 (4.41)
GITFDDYAMH | GISTNSGSIGYADSVK | GGRGGGYFDY | n.d. / n.d. / n.d. | 1 of 9 (3.26)
GFTFDDYFMH | GISWNSGSIGYAASVK | VGRYGGYFDY | n.d. / 4.69 / n.d. | 0 of 9
QFTYDDYAMH | GISWNSGYIGYADSVK | VGRGGGYFDY | n.d. / n.d. / n.d. | 0 of 9
GFTFDDYAIH | PISWNSGSIGYADSVK | VGRGGGYFDY | n.d. / n.d. / n.d. | 0 of 9
GFTFDDGAMH | GYSWNSGSIGYADSVK | VGRGGGYFDF | 3.60 / n.d. / n.d. | 2 of 9 (3.88)
GFTFDDYAMH | GISWNSGSIGYADSCA | VGRGGGYMDY | n.d. / n.d. / n.d. | 0 of 9
GFTFDDYAMH | GISWNSGSWCYADAVK | VGRGGGYFDY | 4.08 / 6.42 / 3.68 | 6 of 9 (4.85)
GFTFDDYAMH | GISWNSGSLGYADSVK | EGRGGGYFDY | 4.89 / 5.50 / n.d. | 0 of 9
IFTFDDYAMA | DISWNSGSIGYADSVK | VGRGGGYFDY | n.d. / n.d. / n.d. | 0 of 9
GFTFCDYAMH | GPSWNSYSIGYADSVK | VGRGGGYFDY | n.d. / n.d. / n.d. | 0 of 9
GFTFDDYAMH | GISWNSGSYGPCDSVK | VGRGGGYFDY | n.d. / n.d. / n.d. | 0 of 9
GFTFDDYAMH | GPSWNSGSIGYADSVK | VGRGGGYFDY | n.d. / n.d. / n.d. | 0 of 9
GGTFSDYAMH | GISWNIGSIGYADSVK | VGRGGGYFDY | 3.75 / 4.68 / n.d. | 2 of 9 (4.52)
GFTFDDYAMH | GISVNSGSIGMADSVK | TGRGGGYFDY | 3.76 / 3.63 / 3.67 | 7 of 9 (5.20)
GFTFRDYAMH | GISWNSGSIGYADSVK | VGRGGCYFDK | n.d. / n.d. / n.d. | 1 of 9 (3.94)
GFTFDDYAMH | GISWNSVSNGYADSVK | VGRGGGYGDY | 0.77 / 0.66 / 0.50 | 0 of 9
GFTFDDYAMH | GISWNSGSIGIADSVK | VGAGGGYFDY | 1.33 / 2.27 / 1.81 | 1 of 9 (4.23)
GFTFDLYAMH | GISWNSGSIGYADSVK | TGRGGGYFDY | 3.06 / 3.07 / 3.45 | 6 of 9 (4.99)
GFTFDDYAMH | YISWNSGSIGRADSVK | MGRGGGYFDY | n.d. / n.d. / 5.49 | 4 of 9 (4.72)
GFTFDDYAMH | GISWNIGSIGYADSVK | VGRGGGYFAV | n.d. / n.d. / 3.56 | 3 of 9 (3.70)

Repeated from above, the 4 best binders with a signal in all replicates:

{"CDR-H1": "GFTFDDYAMH", "CDR-H2": "GISWNSVSNGYADSVK", "CDR-H3": "VGRGGGYGDY", "replicates, log10 nM": "0.77 / 0.66 / 0.50", "signal with controls": "0 of 9"}
{"CDR-H1": "GFTFDDYAMH", "CDR-H2": "GISWNSGSIGIADSVK", "CDR-H3": "VGAGGGYFDY", "replicates, log10 nM": "1.33 / 2.27 / 1.81", "signal with controls": "1 of 9 (4.23)"}
{"CDR-H1": "GFTFDLYAMH", "CDR-H2": "GISWNSGSIGYADSVK", "CDR-H3": "TGRGGGYFDY", "replicates, log10 nM": "3.06 / 3.07 / 3.45", "signal with controls": "6 of 9 (4.99)"}
{"CDR-H1": "GFTFDDYAMH", "CDR-H2": "GISVNSGSIGMADSVK", "CDR-H3": "TGRGGGYFDY", "replicates, log10 nM": "3.76 / 3.63 / 3.67", "signal with controls": "7 of 9 (5.20)"}

From the AlphaSeq antibody data of Engelhart et al. 2022 (doi:10.1038/s41597-022-01779-4), copy in the FLAb collection.